## Measured affinities in a library of Ab-14 light chain variants

Target: peptide PDVDLGDISGINAS, taken from heptad repeat 2 (HR2) of SARS-CoV-2 spike.

Parent scFv Ab-14: VH joined to VL by the linker GGGGSGGGGSGGGGS. Changes lie in the light chain CDRs alone.
VH: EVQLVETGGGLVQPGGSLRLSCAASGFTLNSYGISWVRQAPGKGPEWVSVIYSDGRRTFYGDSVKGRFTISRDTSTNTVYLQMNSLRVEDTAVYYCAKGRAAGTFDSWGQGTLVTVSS
VL: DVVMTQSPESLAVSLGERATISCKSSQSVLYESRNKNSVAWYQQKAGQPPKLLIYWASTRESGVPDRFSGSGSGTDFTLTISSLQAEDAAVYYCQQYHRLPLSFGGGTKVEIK

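Library AAYL50 holds single substitutions and randomly drawn double and triple substitutions in the CDRs. Affinity was read by AlphaSeq, a pooled yeast mating assay with surface-displayed partners. After mating in shaken culture at 30 °C for 16 h, diploids were selected and their barcode pairs sequenced. Read counts were normalised to the haploid input and turned into Kd by a linear fit to BCL2-family pairs of known affinity, for each replicate. There are three technical replicates.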

Each variant is given by its three light chain CDRs, as the data file delimits them; those of the parent are KSSQSVLYESRNKNSVA, WASTRES, QQYHRLPLS.
Affinities are written as log10 Kd with Kd in nM; a lower number is a better binder.
The mean shown is taken over the replicates in which the pair was detected.
A pair that was not seen in that replicate is written "n.d."; this usually means weak binding, but a binder can also be missed.
The list is sorted by this average, lowest first, undetected variants last.
Nonspecific signal, from three strains lacking the peptide, appeared in 18% of pairings of library AAYL50, centred on 4.19 (5% of these signals below 2.99); values are not corrected for it.
Parent in this assay: reference entry 0.65, copy in this library 1.68.

| CDR-L1 | CDR-L2 | CDR-L3 | replicates, log10 nM | log10 Kd (nM), mean |
|---|---|---|---|---|
| KSSQSDLYESRNKNSVA | QASTRES | QQYWRLPLS | -0.49 / -0.11 / -0.38 | -0.33 |
| KSSQSVWYESRQGNSVA | WASTRES | QQYHRLPLS | 0.65 / 1.08 / 0.94 | 0.89 |
| KSSSSVLYESRNKNSVA | WVSTREV | QQYHRLPLS | 1.09 / 1.26 / 1.70 | 1.35 |
| NSSQSQLYESRNKNSVA | WASTRES | QQYHRLPLS | 1.58 / 1.95 / 1.76 | 1.76 |
| KSSQSVLTEIRWKNSVA | WASTRES | QQYHRLPLS | 1.47 / 1.75 / 2.14 | 1.79 |
| KSSQSVLYEQRNKNPVA | WASRRES | QQYHRLPLS | n.d. / 1.79 / n.d. | 1.79 |
| DSSQSVLYESRIKNSVA | WASTRES | QQYFRLPLS | 2.54 / 1.60 / 1.51 | 1.89 |
| LSSQSVHYESRNGNSVA | WASTRES | QQYHRLPLS | 1.90 / 1.88 / 2.11 | 1.96 |
| KSSQSVLRQSRNKNSVA | WASTREW | QQYHRLPLS | 2.25 / 2.07 / 1.78 | 2.04 |
| KSSQSVLYESRYKNSVA | WASTRES | QQYMRLPLY | 2.03 / 1.94 / 2.29 | 2.09 |
| KSKQSVLYESRNKNSVA | WASTRES | QKYYRLPLS | 1.85 / 2.17 / 2.26 | 2.09 |
| KSSQSVLYEYRNKNSVA | WTSDRES | QQYHRLPLS | 2.34 / 1.96 / 1.98 | 2.09 |
| KSSQSVLYESHNKNSVA | WISNRES | QQYHRLPLS | 2.33 / n.d. / n.d. | 2.33 |
| KSSESVLYESRCFNSVA | WASTRES | QQYHRLPLS | 2.50 / 2.45 / 2.37 | 2.44 |
| KSDQSVLYESRNKNSVA | WASTRES | QQYHRLPLW | 2.57 / 2.40 / 2.52 | 2.50 |
| KSSQSVPVKSRNKNSVA | WASTRES | QQYHRLPLS | 2.59 / 2.85 / n.d. | 2.72 |
| KSSQSVLYESRNKNDVA | WASIIES | QQYHRLPLS | 3.04 / n.d. / n.d. | 3.04 |
| KGSQSVLYESRNKNSVA | WASTRES | QQYHHLPQS | n.d. / 3.29 / n.d. | 3.29 |
| KSSQFVLYESRNKNSVA | WASTRKS | AQYHRLPLS | 4.07 / n.d. / n.d. | 4.07 |
| KSSRSVLYESRNKNLVA | WASTRES | QQYHRLPLP | 4.35 / n.d. / 3.84 | 4.10 |
| KSSQSVLYESRNKNSVA | WDQTRES | QQYHRLPLC | n.d. / 4.17 / n.d. | 4.17 |
| KSSQSVLYESRNTNSVA | WPSTRES | QRYHRLPLS | 4.52 / n.d. / n.d. | 4.52 |
| KSSQSVLYESRNKNSCA | WASTRER | EQYHRLPLS | 4.50 / 3.32 / 5.75 | 4.52 |
| KSSQSVLYEMRNKNSVA | WASTPES | QQCHRLPLS | 5.10 / 4.23 / 6.27 | 5.20 |
| KSWQSVLYESRAKNSVA | WASTRES | QQYHRWPLS | n.d. / 5.54 / 4.98 | 5.26 |
| KSSQSVLYWSRNKNSVA | WASTIES | QQYHRLPLG | n.d. / n.d. / n.d. | n.d. |
| KSRQSVLYESRNKNSVA | WASTEES | QQYHRLPLS | n.d. / n.d. / n.d. | n.d. |
| KSSQSVLYESRNGNSVA | WASTRES | EQYLRLPLS | n.d. / n.d. / n.d. | n.d. |
| KDSCSVLYESRNKNSVA | WASTRES | QTYHRLPLS | n.d. / n.d. / n.d. | n.d. |
| KSSQSVLVESRNKNSVA | WASCRES | VQYHRLPLS | n.d. / n.d. / n.d. | n.d. |
| KSSQSVLYESRNKNSKA | YASTRES | QQYHRLMLS | n.d. / n.d. / n.d. | n.d. |
| KSSQSVVYESRNKNSVG | WASTRES | QQYHHLPLS | n.d. / n.d. / n.d. | n.d. |
| KSSQSFLYESRRKNSVA | WASTRES | QQYHRLPLN | n.d. / n.d. / n.d. | n.d. |

The last 3 entries again:

| CDR-L1 | CDR-L2 | CDR-L3 | replicates, log10 nM | log10 Kd (nM), mean |
|---|---|---|---|---|
| KSSQSVLYESRNKNSKA | YASTRES | QQYHRLMLS | n.d. / n.d. / n.d. | n.d. |
| KSSQSVVYESRNKNSVG | WASTRES | QQYHHLPLS | n.d. / n.d. / n.d. | n.d. |
| KSSQSFLYESRRKNSVA | WASTRES | QQYHRLPLN | n.d. / n.d. / n.d. | n.d. |

The measurements come from Engelhart et al. 2022 (doi:10.1038/s41597-022-01779-4) through the FLAb antibody collection.